From PubChem BioAssay AID1648 (Sanford-Burnham Center for Chemical Genomics, 2009)
Calls of active or inactive are those of the source. The rule behind the calls is not given here.

By UniProt entry, the sequences of proteins in these tests, tags left out. Residues count along the entry.
UniProt P42345, 2015-2114: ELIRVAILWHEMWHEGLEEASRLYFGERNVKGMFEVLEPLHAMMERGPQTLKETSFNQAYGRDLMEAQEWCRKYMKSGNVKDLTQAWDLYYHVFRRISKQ

Target: Serine/threonine-protein kinase mTOR (Homo sapiens) (UniProt P42345)
Experiment: mTOR FRB domain ligand binding – biophysical, NMR (AID 1648)
Conditions: NMR binding to FRB domain, chemical shift

| SMILES | Kd |
| --- | --- |
| OC1CN2CCC1CC2 (configuration not stated) | inactive: > 4 mM |
| CP(N)(=O)Oc1ccc(Cl)cc1 (configuration not stated) | inactive: > 4 mM |
